# According to patent publication US20230293519A1, “INTEGRIN INHIBITORS AND USES THEREOF IN COMBINATION WITH OTHER AGENTS” (Pliant Therapeutics, Inc., priority 2021, published 2023):
# Amino acid sequences for entries named in this document (tags omitted). Residues count along the entry.
# UniProt P06756, 31-889 limits assumed: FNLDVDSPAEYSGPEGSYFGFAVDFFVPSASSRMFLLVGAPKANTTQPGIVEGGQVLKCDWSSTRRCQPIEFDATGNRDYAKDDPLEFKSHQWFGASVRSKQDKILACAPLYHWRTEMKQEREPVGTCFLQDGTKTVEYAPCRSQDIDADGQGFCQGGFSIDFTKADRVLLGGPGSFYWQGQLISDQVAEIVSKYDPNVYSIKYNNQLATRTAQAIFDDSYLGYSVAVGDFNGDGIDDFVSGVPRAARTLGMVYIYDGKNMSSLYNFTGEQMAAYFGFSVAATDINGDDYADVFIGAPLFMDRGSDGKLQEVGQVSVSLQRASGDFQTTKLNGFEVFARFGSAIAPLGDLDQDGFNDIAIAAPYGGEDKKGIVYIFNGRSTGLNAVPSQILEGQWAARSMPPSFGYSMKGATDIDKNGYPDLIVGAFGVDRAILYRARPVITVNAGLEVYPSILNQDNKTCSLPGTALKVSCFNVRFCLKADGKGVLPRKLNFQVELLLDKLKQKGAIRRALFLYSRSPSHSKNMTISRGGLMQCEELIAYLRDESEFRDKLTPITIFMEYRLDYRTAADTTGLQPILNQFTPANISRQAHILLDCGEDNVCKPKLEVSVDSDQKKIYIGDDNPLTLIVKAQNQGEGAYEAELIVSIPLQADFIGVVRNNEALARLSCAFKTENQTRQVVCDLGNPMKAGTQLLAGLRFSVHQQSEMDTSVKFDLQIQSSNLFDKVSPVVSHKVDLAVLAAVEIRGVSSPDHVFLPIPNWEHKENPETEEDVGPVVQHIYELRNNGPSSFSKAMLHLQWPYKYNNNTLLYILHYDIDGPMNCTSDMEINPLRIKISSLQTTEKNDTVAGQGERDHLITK
# UniProt P06756, 890-992 partner limits assumed: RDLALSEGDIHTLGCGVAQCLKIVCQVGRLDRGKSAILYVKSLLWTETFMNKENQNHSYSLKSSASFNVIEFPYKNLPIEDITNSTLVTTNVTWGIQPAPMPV
# UniProt P18564, 22-707 limits assumed: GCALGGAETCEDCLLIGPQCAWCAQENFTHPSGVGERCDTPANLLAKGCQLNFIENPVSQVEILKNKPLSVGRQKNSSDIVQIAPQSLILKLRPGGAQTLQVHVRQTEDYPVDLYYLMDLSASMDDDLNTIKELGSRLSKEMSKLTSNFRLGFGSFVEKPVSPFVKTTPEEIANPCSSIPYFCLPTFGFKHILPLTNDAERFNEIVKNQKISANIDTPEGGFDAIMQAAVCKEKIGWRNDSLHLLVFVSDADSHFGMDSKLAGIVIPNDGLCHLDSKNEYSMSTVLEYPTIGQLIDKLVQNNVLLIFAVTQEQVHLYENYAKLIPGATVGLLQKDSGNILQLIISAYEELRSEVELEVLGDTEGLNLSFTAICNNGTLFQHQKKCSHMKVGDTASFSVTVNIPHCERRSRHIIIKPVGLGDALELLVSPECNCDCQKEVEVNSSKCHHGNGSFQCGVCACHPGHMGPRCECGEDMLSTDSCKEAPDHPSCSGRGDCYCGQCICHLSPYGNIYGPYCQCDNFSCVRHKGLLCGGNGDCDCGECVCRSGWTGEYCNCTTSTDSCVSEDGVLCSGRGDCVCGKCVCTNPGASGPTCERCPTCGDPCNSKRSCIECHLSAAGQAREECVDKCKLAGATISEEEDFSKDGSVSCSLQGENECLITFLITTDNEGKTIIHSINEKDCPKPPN
# Target: recombinant human integrin αvβ6 (Homo sapiens (Human), UniProt P06756+P18564)
# Assay: Solid phase integrin αvβ6 binding assay
# Conditions: read-out: αvβ6 Inhibition IC50 (nM) - range; IC50 presented in four ranges
# Procedure: (§1) Microplates were coated with recombinant human integrin αvβ6 (2 µg/mL) in PBS (100 µL/well 25° C., overnight). The coating solution was removed, washed with wash buffer (0.05% Tween 20; 0.5 mM MnCl2; in 1x TBS). The plate was blocked with 200 µL/well of Block Buffer (1% BSA; 5% sucrose; 0.5 mM MnCl2; in 1x TBS) at 37° C. for 2 h. Dilutions of testing compounds and recombinant TGFβ1 LAP (0.67 µg/mL) in binding buffer (0.05% BSA; 2.5% sucrose; 0.5 mM MnCl2; in 1x TBS) were added. The plate was incubated for 2 hours at 25° C., washed, and incubated for 1 hour with Biotin-Anti-hLAP. Bound antibody was detected by peroxidase-conjugated streptavidin. The IC50 values for testing compounds were calculated by a four-parameter logistic regression.
# The compounds tested were compound samples prepared according to procedures described in the Synthetic Examples section, with the stereochemical purity as indicated in the Examples. The IC50 values in Tables B-1 and B-2 are presented in four ranges: below 50 nM; from 50 nM to 250 nM; from above 250 nM to 1000 nM; and above 1000 nM.
# as §1, with “A third series of exemplary compounds was selected for testing in the solid phase integrin αvβ6 binding assay. The compounds tested were compound samples prepared according to procedures described in the Synthetic Examples section, with the stereochemical purity as indicated in the Examples. As in Example B1, microplates” for “Microplates”
row,SMILES,IC50 [nM]
1,CO[C@H](C)CN(CCCCc1ccc2c(n1)NCCC2)CC[C@H](Nc1ncc(Br)cn1)C(=O)O [compound 86],< 50
2,CO[C@H](C)CN(CCCCc1ccc2c(n1)NCCC2)CC[C@H](Nc1cc(-c2ccccc2)ncn1)C(=O)O [compound 128],< 50
3,CO[C@H](C)CN(CCCCc1ccc2c(n1)NCCC2)CC[C@H](Nc1ncc(C(F)(F)F)cn1)C(=O)O [compound 85],< 50
4,CO[C@H](C)CN(CCCCc1ccc2c(n1)NCCC2)CC[C@H](Nc1ccnc(C(F)(F)F)n1)C(=O)O [compound 87],< 50

# Further lines, results first:
row,IC50 [nM],SMILES
1,< 50,COCCN(CCCCc1ccc2c(n1)NCCC2)CCC(Nc1ncnc2cccnc12)C(=O)O (centres unmarked)
2,< 50,CO[C@H](C)CN(CCCCc1ccc2c(n1)NCCC2)CC[C@H](Nc1ncc(C#N)cn1)C(=O)O [compound 84]
3,< 50,CO[C@H](C)CN(CCCCc1ccc2c(n1)NCCC2)CC[C@H](Nc1ccncn1)C(=O)O [compound 127]
4,50 to 250,COCCN(CCCCc1ccc2c(n1)NCCC2)CCC(Nc1ncnc2cc(C(F)(F)F)ccc12)C(=O)O (centres unmarked)
